This passage reports Ki results from patent US8278338B2 (priority 2004, dated 2012).

Amino acid sequences for entries named in this document (tags omitted). Residues count along the entry.
UniProt Q63380, 1-617: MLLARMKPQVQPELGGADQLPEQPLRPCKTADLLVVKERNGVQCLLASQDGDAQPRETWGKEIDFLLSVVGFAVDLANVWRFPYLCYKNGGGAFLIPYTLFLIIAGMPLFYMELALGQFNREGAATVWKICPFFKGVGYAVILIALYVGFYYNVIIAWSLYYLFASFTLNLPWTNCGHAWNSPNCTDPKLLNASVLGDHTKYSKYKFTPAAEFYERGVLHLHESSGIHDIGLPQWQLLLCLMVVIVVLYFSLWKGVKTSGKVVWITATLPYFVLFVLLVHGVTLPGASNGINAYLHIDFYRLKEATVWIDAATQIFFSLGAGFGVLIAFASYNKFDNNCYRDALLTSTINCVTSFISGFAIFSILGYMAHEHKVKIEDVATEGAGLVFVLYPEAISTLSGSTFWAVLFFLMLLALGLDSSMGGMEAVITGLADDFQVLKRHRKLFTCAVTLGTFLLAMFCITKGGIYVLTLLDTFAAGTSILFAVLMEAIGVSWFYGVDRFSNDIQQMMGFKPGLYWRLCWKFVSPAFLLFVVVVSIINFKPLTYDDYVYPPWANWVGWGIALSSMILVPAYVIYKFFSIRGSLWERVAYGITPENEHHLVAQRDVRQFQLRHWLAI

The target of this assay is T1, NA reuptake (Rattus norvegicus, UniProt Q63380).
T1 construct: isolated from the hypothalamus of male rat brains; from tissue; host or cells: rat brain synaptosomes (P2 fraction), hypothalamus of male rats
Put plainly: Inhibition of NA reuptake in rat brain synaptosomes (hypothalamus, P2 fraction). It is filed as biochemical. The following applies: Cheng-Prusoff. On the procedure: In order to be able to carry out these in vitro studies, synaptosomes were freshly isolated from areas of rat brain. A so-called “P2” fraction was used in each case, which was prepared exactly according to the procedure of Gray, E. G. and Whittaker, V. P. (1962, J. Anat. […], 79-88). For NA reuptake, these vesicular particles were isolated from the hypothalamus of male rat brains, and for 5HT reuptake, they were isolated from the medulla+pons region.
IC50 values were obtained thereby which can be converted into inhibitor constants (Ki) according to the “Cheng-Prusoff equation” (Cheng, Y. C. and Prusoff, W. H., 1973, Biochem. Pharmacol. 22, 3099-3108). The IC50 values were obtained with the aid of the “Figure P” computer program (Version 6.0, Biosoft, Cambridge, England). Km values were calculated according to Lineweaver, H. and Burk, D. (1934, J. Am. Chem. Soc. 56, 658-666). The “Ligand” computer program (Version 4, Biosoft, England) was used to show KD values.

As for `COc1ccc(C(CN(C)C)C2(O)CCCCC2)cc1` (stereo not shown) [Venlafaxin, venlafaxin, reference compound], the affinity corresponds to a Ki of 450 nM.
